# Values quoted from earlier work in article PMC10786692 (The Journal of Clinical Investigation, 2024).
# Test system: DDR-defective tumors
# Details: in vivo; cited from earlier work
structure (smiles),measurement,value
C[C@@H]1COCCN1c1cc(-c2ccnn2C)c2ccnc(-c3ccn[nH]3)c2n1 [BAY1895344],Patients with durable responses,4 of 11
